SMILES strings stand for the structures.

The chains behind the UniProt entries cited, without tags or fusion partners.
UniProt P30556, whole entry Y92A: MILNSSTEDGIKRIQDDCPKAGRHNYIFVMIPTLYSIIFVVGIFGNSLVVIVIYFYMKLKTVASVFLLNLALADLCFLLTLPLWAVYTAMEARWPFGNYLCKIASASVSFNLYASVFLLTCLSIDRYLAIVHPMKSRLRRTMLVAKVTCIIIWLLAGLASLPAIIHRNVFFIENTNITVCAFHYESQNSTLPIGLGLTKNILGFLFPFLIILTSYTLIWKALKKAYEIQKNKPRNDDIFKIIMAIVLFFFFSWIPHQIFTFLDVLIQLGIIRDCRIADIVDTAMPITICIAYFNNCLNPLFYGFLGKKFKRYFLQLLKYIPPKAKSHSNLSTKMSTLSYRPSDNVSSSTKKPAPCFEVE

The assay addresses AT1R single mutants (Homo sapiens, UniProt P30556, Y92A). The experiment in a line: Ligand binding assays on AT1R single mutants, COS-1 cell membranes. The note with it: Tyr92Ala mutant.

For the compound `CCCc1nc2c(C)cc(-c3nc4ccccc4n3C)cc2n1Cc1ccc(-c2ccccc2C(=O)O)cc1` [telmisartan], the “change of affinity at mutant” value was “dramatic decrease”.

(Values after publication PMC4427029 (Cell, 2015).)
